Laboratory results published in patent publication US9255090B2, “Heterocyclyl derivatives and their use as prostaglandin D2 receptor modulators” (Actelion Pharmaceuticals Ltd., priority 2012, dated 2016).

By UniProt entry, the sequences of proteins in these tests, tags left out. Where a name states a change or a piece, a line headed by the entry shows the natural chain unless it says otherwise.
UniProt Q9Y5Y4: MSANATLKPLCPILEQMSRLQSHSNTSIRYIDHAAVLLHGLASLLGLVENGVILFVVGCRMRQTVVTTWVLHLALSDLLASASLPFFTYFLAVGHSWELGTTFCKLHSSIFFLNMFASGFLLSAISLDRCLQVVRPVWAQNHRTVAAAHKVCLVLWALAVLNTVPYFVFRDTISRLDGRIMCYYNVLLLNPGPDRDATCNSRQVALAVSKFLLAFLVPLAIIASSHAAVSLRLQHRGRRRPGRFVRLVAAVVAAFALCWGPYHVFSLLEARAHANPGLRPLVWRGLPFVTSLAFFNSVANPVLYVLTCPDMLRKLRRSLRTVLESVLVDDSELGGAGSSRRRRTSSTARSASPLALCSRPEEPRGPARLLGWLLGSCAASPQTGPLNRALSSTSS

Biological target: hCRTH2 receptor (Homo sapiens (Human), UniProt Q9Y5Y4)
Assay: hCRTH2 receptor membranes radioligand (3H-PGD2) displacement assay
Assay type: binding
Conditions: 3H-PGD2 radioligand displacement, HEK293-hCRTH2 membranes
Experimental: Biological Assays: Preparation of hCRTH2 Receptor Membranes and Radioligand Displacement Assay:
First, recombinant HEK293-hCRTH2 cells were detached from culture plates into 5 ml buffer A/plate (Buffer A: 5 mM Tris, 1 mM MgCl2-6H2O pH=7.4) using a rubber policeman. Cells were then transferred into centrifugation tubes and centrifuged for 5 min at 400 g. The cell pellet was resuspended in the same buffer and tubes were frozen at −80° C. Cells were thawed and membrane fragments were generated by homogenization using a polytron homogenizer (30 seconds). The membrane fragments were then centrifuged at 3000 g for 20 minutes and resuspended in buffer C (Buffer C: 75 mM Tris, 25 mM MgCl2, 250 mM Saccharose pH 7.4). Aliquots of membrane fragments were stored at −20° C.
Binding assay was performed in a final assay volume of 250 μl. First, 25 μl of test compound, previously diluted in Binding-Buffer (Binding-Buffer: 50 mM Tris-Base, 100 mM NaCl, 1 mM EDTA, 0.1% BSA (protease free), 0.01% NaN3, 10 mM MnCl2, pH 7.0) was placed into each well. After addition of 75 μl Binding-Buffer, 50 μl of the radioligand ^3H-PGD2 (at 2.5 nM (220.000 dpm/well) from ANAWA ART0662) was added to each well. Binding assay was started by addition of 100 μl CRTH2 membrane fragments, reaching a final concentration of 20 μg/well. For non-specific binding, PGD2 was added to the reaction mixture to […] final concentration. This assay mix was incubated for 90 minutes at room temperature and then filtered through a GF/C filter 96-well plate which was pre-soaked for 3 hours in 0.5% polyethyleneimine (PEI). The filter-wells were washed three times with ice cold Binding-Buffer. Then, 40 μl of Microscint-40 (Packard) was added to each well and the retained radioactivity quantified in a Topcount (Packard).

IC50	SMILES
3.6 nM	COc1ccc(CC(=O)O)cc1-c1ccc(F)c2c1CN(C(=O)CC1CC(C)(C)Oc3ccccc31)CC2 (racemic) [Example 240]
77.9 nM	COc1cccc(C(C)CC(=O)N2CCc3c(F)ccc(-c4cc(CC(=O)O)ccc4OC)c3C2)n1 (racemic) [Example 248, hydrochloride]
40.4 nM	COc1ccc(CC(=O)O)cc1-c1ccc(F)c2c1CN(C(=O)CC(C)c1cccc(C)n1)CC2 (racemic) [Example 249, hydrochloride]
0.8 nM	CC(C)Oc1ccc(CC(=O)O)cc1-c1ccc(F)c2c1CN(C(=O)CC1COCc3ccccc31)CC2 (racemic) [Example 296]
6.6 nM	Cc1cccc(C(C)CC(=O)N2CCc3c(F)ccc(-c4cc(CC(=O)O)ccc4OCC(F)(F)F)c3C2)n1 (racemic) [Example 303]
36.3 nM	CCOc1cc(CC(=O)O)ccc1-c1ccc(F)c2c1CN(C(=O)CC(c1ccccn1)C1CC1)CC2 (racemic) [Example 319]
1.3 nM	CCOc1cc(CC(=O)O)ccc1-c1ccc(F)c2c1CN(C(=O)[C@@H]1C[C@H]1c1ccccn1)CC2 (racemic) [Example 322]
9.6 nM	CCOc1ccc(CC(=O)O)cc1-c1ccc(F)c2c1CN(C(=O)CC1CC(C)(C)Oc3ccccc31)CC2 (racemic) [Example 331]
10.2 nM	CCOc1ccc(CC(=O)O)cc1-c1ccc(F)c2c1CN(C(=O)CC1(C)CCCc3ccccc31)CC2 (racemic) [Example 334]
2.2 nM	COc1ccc(CC(=O)O)cc1-c1ccc(F)c2c1CN(C(=O)[C@@H]1C[C@H]1c1ccccn1)CC2 (racemic) [Example 361]
14.8 nM	CCOc1ccc(CC(=O)O)cc1-c1ccc(F)c2c1CN(C(=O)OCC1CCCO1)CC2 (racemic) [Example 384]
1.6 nM	CCOc1ccc(CC(=O)O)cc1-c1ccc(F)c2c1CN(C(=O)CC1COc3ccccc31)CC2 (stereo not drawn) [Example 208, {3-[2-(2-2,3-Dihydro-benzofuran-3-yl-acetyl)-5-fluoro-1,2,3,4-tetrahydro-isoquinolin-8-yl]-4-ethoxy-phenyl}-acetic acid]
3.4 nM	CCOc1ccc(CC(=O)O)cc1-c1ccc(F)c2c1CN(C(=O)CC1COCc3ccccc31)CC2 (stereo not drawn) [Example 209, {4-Ethoxy-3-[5-fluoro-2-(2-isochroman-4-yl-acetyl)-1,2,3,4-tetrahydro-isoquinolin-8-yl]-phenyl}-acetic acid]

The remaining lines, values behind:

SMILES	IC50
COc1ccc(CC(=O)O)cc1-c1ccc(F)c2c1CN(C(=O)[C@@H]1C[C@H]1c1ccccc1)C2 (racemic) [Example 37, (±)-{3-[7-Fluoro-2-(trans-2-phenyl-cyclopropanecarbonyl)-2,3-dihydro-1H-isoindol-4-yl]-4-methoxy-phenyl}-acetic acid]	7.54 nM
COc1ccc(CC(=O)O)cc1-c1ccc(F)c2c1CN(C(=O)C1CC1(C)C)CC2 (racemic) [Example 55, (±)-{3-[2-(2,2-Dimethyl-cyclopropanecarbonyl)-5-fluoro-1,2,3,4-tetrahydro-isoquinolin-8-yl]-4-methoxy-phenyl}-acetic acid]	45.7 nM
COc1ccc(CC(=O)O)cc1-c1ccc(F)c2c1CN(C(=O)[C@@H]1C[C@H]1c1ccccc1C(F)(F)F)CC2 (racemic) [Example 95, (±)-(3-{5-Fluoro-2-[trans-2-(2-trifluoromethyl-phenyl)-cyclopropanecarbonyl]-1,2,3,4-tetrahydro-isoquinolin-8-yl}-4-methoxy-phenyl)-acetic acid]	0.22 nM
COc1ccc([C@@H]2C[C@H]2C(=O)N2CCc3c(F)ccc(-c4cc(CC(=O)O)ccc4OC)c3C2)cc1 (racemic) [Example 96, (±)-(3-{5-Fluoro-2-[trans-2-(4-methoxy-phenyl)-cyclopropanecarbonyl]-1,2,3,4-tetrahydro-isoquinolin-8-yl}-4-methoxy-phenyl)-acetic acid]	21.2 nM
COc1ccc(CC(=O)O)cc1-c1ccc(F)c2c1CN(C(=O)C1CC(=O)c3ccccc3C1)CC2 (racemic) [Example 114, (±)-{3-[5-Fluoro-2-(4-oxo-1,2,3,4-tetrahydro-naphthalene-2-carbonyl)-1,2,3,4-tetrahydro-isoquinolin-8-yl]-4-methoxy-phenyl}-acetic acid]	21.2 nM
COc1ccc(CC(=O)O)cc1-c1ccc(F)c2c1CN(C(=O)C1Cc3ccccc31)CC2 (racemic) [Example 116, (±)-{3-[2-(Bicyclo[4.2.0]octa-1(6),2,4-triene-7-carbonyl)-5-fluoro-1,2,3,4-tetrahydro-isoquinolin-8-yl]-4-methoxy-phenyl}-acetic acid]	211 nM
COc1ccc(CC(=O)O)cc1-c1ccc(F)c2c1CN(C(=O)C1CCc3ccccc3C1)CC2 (racemic) [Example 123, (±)-{3-[5-Fluoro-2-(1,2,3,4-tetrahydro-naphthalene-2-carbonyl)-1,2,3,4-tetrahydro-isoquinolin-8-yl]-4-methoxy-phenyl}-acetic acid]	37.7 nM
COc1ccc(CC(=O)O)cc1-c1ccc(F)c2c1CN(C(=O)[C@@H]1C[C@H]1c1cccc(F)c1)CC2 [Example 65, (3-{5-Fluoro-2-[(1R,2R)-2-(3-fluoro-phenyl)-cyclopropanecarbonyl]-1,2,3,4-tetrahydro-isoquinolin-8-yl}-4-methoxy-phenyl)-acetic acid]	1.85 nM
COc1cc(CC(=O)O)ccc1-c1ccc(F)c2c1CN(C(=O)CC1CCOc3ccccc31)CC2 (stereo not drawn) [Example 200, {4-[2-(2-Chroman-4-yl-acetyl)-5-fluoro-1,2,3,4-tetrahydro-isoquinolin-8-yl]-3-methoxy-phenyl}-acetic acid]	8 nM
COc1cc(CC(=O)O)ccc1-c1ccc(F)c2c1CN(C(=O)CC1CCOc3ccccc31)CC2 (stereo not drawn) [Example 201, {4-[2-(2-Chroman-4-yl-acetyl)-5-fluoro-1,2,3,4-tetrahydro-isoquinolin-8-yl]-3-methoxy-phenyl}-acetic acid]	9.5 nM
CCOc1ccc(CC(=O)O)cc1-c1ccc(F)c2c1CN(C(=O)CC1COc3ccccc31)CC2 (stereo not drawn) [Example 207, {3-[2-(2-2,3-Dihydro-benzofuran-3-yl-acetyl)-5-fluoro-1,2,3,4-tetrahydro-isoquinolin-8-yl]-4-ethoxy-phenyl}-acetic acid]	1.4 nM

Counter-ions that a name gives are not always drawn.
